Data published in US6262094A (priority 1999, dated 2001).

What follows are compounds tested on L929 (DSM ACC 2), mouse connective tissue fibroblasts (assay: cells). Conditions: L929, 120 h, read-out: IC50 L929 mouse.
Type: cell-based
Compound C/C(=C\c1csc(CN)n1)[C@@H]1C[C@@H]2O[C@@H]2CCC[C@H](C)[C@H](O)[C@@H](C)C(=O)C(C)(C)[C@@H](O)CC(=O)O1 [21-amino-epo A] has an IC50 of 8 ng/mL (≈ 0.0157 µM). For C/C(=C\c1csc(CN=[N+]=[N-])n1)[C@@H]1C[C@@H]2O[C@@H]2CCC[C@H](C)[C@H](O)[C@@H](C)C(=O)C(C)(C)[C@@H](O)CC(=O)O1 [21-azido-epo A], the IC50 was 6 ng/mL (≈ 0.0112 µM). Compound C=Cc1nc(/C=C(\C)[C@@H]2C[C@@H]3O[C@@H]3CCC[C@H](C)[C@H](O)[C@@H](C)C(=O)C(C)(C)[C@@H](O)CC(=O)O2)cs1 [20-vinyl-epo A, [1S-[1R*,3R*(E),7R*,10S*,11R*,12R*,16S*]]-3-[2-(2-Ethenyl-4-thiazolyl)-1-methylethenyl]-7,11-dihydroxy-8,8,10,12-tetramethyl-4,17-dioxabicyclo[14.1. 0]heptadecane-5,9-dione] has an IC50 of 3 ng/mL (≈ 0.00593 µM). Compound C/C(=C\c1csc(C=NO)n1)[C@@H]1C[C@@H]2O[C@@H]2CCC[C@H](C)[C@H](O)[C@@H](C)C(=O)C(C)(C)[C@@H](O)CC(=O)O1 [epo A-20-carbaldoxime] has an IC50 of 7 ng/mL (≈ 0.0134 µM). In the case of C/C(=C\c1csc(CCl)n1)[C@@H]1C[C@@H]2O[C@@H]2CCC[C@H](C)[C@H](O)[C@@H](C)C(=O)C(C)(C)[C@@H](O)CC(=O)O1 [21-chloro-epo A], the IC50 is reported as 170 ng/mL (≈ 0.322 µM). C/C(=C\c1csc(CN)n1)[C@@H]1C[C@@H]2O[C@]2(C)CCC[C@H](C)[C@H](O)[C@@H](C)C(=O)C(C)(C)[C@@H](O)CC(=O)O1 [21-amino-epo B, [1S-[1R*,3R*(E),7R*,10S*,11R*,12R*,16S*]]-3-[2-[2-(Aminomethyl)-4-thiazolyl]-1-methylethenyl]-7,11-dihydroxy-8,8,10,12,16-pentamethyl-4,17-dioxabicyclo[14.1.0]heptadecane-5,9-dione] was tested, and the IC50 was 0.5 ng/mL (≈ 0.000957 µM). Compound C/C(=C\c1csc(CN=[N+]=[N-])n1)[C@@H]1C[C@@H]2O[C@]2(C)CCC[C@H](C)[C@H](O)[C@@H](C)C(=O)C(C)(C)[C@@H](O)CC(=O)O1 [21-azido-epo B, [1S-[1R*,3R* (E),7R*, 10S*,11R*,12R*,16S*]]-3-[2-[2-(Azidomethyl)-4-thiazolyl]-1-methylethenyl]-7,11-dihydroxy-8,8,10,12,16-pentamethyl-4,17-dioxabicyclo[14.1. 0]heptadecane-5,9-dione] has an IC50 of 0.6 ng/mL (≈ 0.00109 µM).

Converted amounts (≈) assume the structure as drawn.
